The assay is described as follows: Selectivity ratio of Ki for human nNOS to Ki for rat nNOS.

For two compounds, Ratio Ki results are on record in ChEMBL document CHEMBL1268881, “Peripheral but crucial: a hydrophobic pocket (Tyr(706), Leu(337), and Met(336)) for potent and selective inhibition of neuronal nitric oxide synthase” (Bioorg Med Chem Lett, 2010).

Take `Nc1cccc(C[C@@H]2CNC[C@@H]2OCCNCCc2cccc(F)c2)n1`: the Ratio Ki came out at 5.8. Under `Nc1cccc(C[C@H]2CNC[C@H]2OCCNCCc2cccc(F)c2)n1` stands 8.2.
